Target: 5-hydroxytryptamine receptor 2B (Homo sapiens, UniProt P41595)

Chains of the proteins cited; added tags and fusions are not shown.
UniProt P41595, whole entry: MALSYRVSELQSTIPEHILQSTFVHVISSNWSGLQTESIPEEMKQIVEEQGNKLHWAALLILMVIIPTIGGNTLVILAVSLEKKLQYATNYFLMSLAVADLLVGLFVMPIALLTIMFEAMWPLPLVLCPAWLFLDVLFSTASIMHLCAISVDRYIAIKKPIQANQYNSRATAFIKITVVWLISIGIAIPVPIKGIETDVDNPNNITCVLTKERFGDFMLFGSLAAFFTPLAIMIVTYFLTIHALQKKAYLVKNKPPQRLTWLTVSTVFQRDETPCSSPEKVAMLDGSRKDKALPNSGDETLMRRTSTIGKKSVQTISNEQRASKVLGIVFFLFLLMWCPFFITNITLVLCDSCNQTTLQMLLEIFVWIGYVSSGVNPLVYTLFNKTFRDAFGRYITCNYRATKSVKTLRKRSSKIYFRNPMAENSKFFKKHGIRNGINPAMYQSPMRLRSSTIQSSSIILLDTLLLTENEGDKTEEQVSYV

| SMILES | Ki [nM] |
| --- | --- |
| CCNC(C)Cc1cccc(C(F)(F)F)c1 (configuration not stated) [NSC_3337] | 4130 |
| Clc1cccc(N2CCNCC2)c1 [mCPP] | 3.2 |

Reference: BindingDB's records for doi:10.1161/01.cir.102.23.2836 (Nih, 2000)
